The text below walks through data of patent publication US20030082226A1, “Non-steroidal antiinflammatory drug formulations for topical application to the skin” (priority 1997, published 2003).

The series can be described thus: Delivery of various NSAIDs through human skin, effect of propylene glycol, static cells (Example 8). It counts as in vitro ADME. Conditions: 10% enhancer, 0 to 20% PG. The source says: All the tested formulations included ethanol and water at a 70:30 weight ratio and were neutralized with base to a pH of about 7.

Regarding `O=C(O)Cc1ccccc1Nc1c(Cl)cccc1Cl` [Diclofenac], the “effect of propylene glycol on total delivery (percent of original dose) at twenty four hours” value is recorded as “positive”.
For `CC(C)Cc1ccc(C(C)C(=O)O)cc1` (centres unmarked) [Ibuprofen] the value was “negative”.
